What was measured:
P388 [1] = assay: Weight difference observed in survivors treated for antitumor activity against P388 Lymphocytic Leukemia system at a dose of 37.5 mg/kg
P388 [2] = assay: Survival rate of the animals determined for antitumor activity against P388 Lymphocytic Leukemia system at a dose of 37.5 mg/kg
P388 [3] = assay: Number of Survivors determined for antitumor activity against P388 Lymphocytic Leukemia system on day 5 at a dose of 300 mg/kg (6 out of 6)
P388 [4] = assay: Weight difference observed in survivors treated for antitumor activity against P388 Lymphocytic Leukemia system at a dose of 75 mg/kg
P388 [5] = assay: Weight difference observed in survivors treated for antitumor activity against P388 Lymphocytic Leukemia system at a dose of 300 mg/kg
P388 [6] = assay: Number of Survivors determined for antitumor activity against P388 Lymphocytic Leukemia system on day 5 at a dose of 37.5 mg/kg (6 out of 6)
P388 [7] = assay: Number of Survivors determined for antitumor activity against P388 Lymphocytic Leukemia system on day 5 at a dose of 75 mg/kg (6 out of 6)
P388 [8] = assay: Survival rate of the animals determined for antitumor activity against P388 Lymphocytic Leukemia system at a dose of 300 mg/kg
P388 [9] = assay: Number of Survivors determined for antitumor activity against P388 Lymphocytic Leukemia system on day 5 at a dose of 150 mg/kg (6 out of 6)
P388 [10] = assay: Survival rate of the animals determined for antitumor activity against P388 Lymphocytic Leukemia system at a dose of 75 mg/kg
P388 [11] = assay: Survival rate of the animals determined for antitumor activity against P388 Lymphocytic Leukemia system at a dose of 150 mg/kg
P388 [12] = assay: Weight difference observed in survivors treated for antitumor activity against P388 Lymphocytic Leukemia system at a dose of 150 mg/kg

Question: `CCC(O)(C(=O)OCC1=CC[N+]2([O-])CCC(O)C12)c1ccccc1` (configuration not stated) was tested. Which T-C (P388 [1]) did it give?
Answer: -1.1

Question: And the T/C (P388 [2])?
Answer: 146%

Question: And the Survivors (P388 [3])?
Answer: 6

Question: What about the T-C (P388 [4]) of the same compound?
Answer: -1.7

Question: And the T-C (P388 [5])?
Answer: -2.2

Question: And the Survivors (P388 [6])?
Answer: 6

Question: And the Survivors (P388 [7])?
Answer: 6

Question: What about the T/C (P388 [8]) of the same compound?
Answer: 166%

Question: What about the Survivors (P388 [9]) of the same compound?
Answer: 6

Question: What about the T/C (P388 [10]) of the same compound?
Answer: 149%

Question: And the T/C (P388 [11])?
Answer: 157%

Question: What about the T-C (P388 [12]) of the same compound?
Answer: -2.1
